According to publication PMC6728138, “Quantitative mapping of protein-peptide affinity landscapes using spectrally encoded beads” (eLife, 2019):
“And” between values parts separate entries of the source, which are not always exact repeats. Equal values may be shown once.

Columns and labels:
[1] = tested on: NFAT-driven luciferase activity in HEK293T cells; test: In vivo calcineurin activity assay (NFAT dual luciferase reporter); type: cell-based
Excerpt: The ultimate goal of mapping CN-SLiM binding energy landscapes is to improve understanding of CN target substrate recognition and enable rational design of in vivo inhibitors. To test the degree to which in vitro MRBLE-pep affinities predict in vivo inhibition, we used a previously developed dual luciferase reporter assay to assess the activity of the NFAT2 transcription factor in HEK293T cells (Figure 6A) ([Grigoriu et al., 2013]). NFAT2 must be dephosphorylated by CN to accumulate in the nucleus, where it activates transcription of its target genes, and this interaction can be inhibited by peptides or small molecules that binds to CN. Reduction of NFAT2-dependent transcriptional activity upon expression of a competing PxIxIT peptide therefore reflects, quantitatively, the affinity of the inhibitor peptide for CN. Candidate PxIxIT inhibitors were co-expressed as GFP-fusion proteins within cells to enhance their stability and facilitate direct measurement of inhibitor concentrations.
PxIxIT peptides were fused to eGFP in pEGFPc1 vector. HEK293T cells were transfected with pEGFPc1 clones, pNFAT-Luc and CMV-Renilla in a 6-well plate format. 18 hr post transfection, 1μM FK506 or DMSO (vehicle) was added to the media as needed. 36 hr post transfection, cells were treated with 1 mM Ionomycin and 1 mM phorbol 12,13 di-butyrate to activate calcineurin and AP-1 (via PKC) respectively. 6 hr after pathway activation, cells were collected, washed in PBS and re-suspended in DMEM media. 80% of the cells were used to measure luciferase activity and renilla using the Dual-Glo assay system (Promega) with three technical replicates. The remaining cells were frozen and stored at −80°C. Cell lysates were prepared in RIPA buffer. 15–20 μg of lysate was analyzed by Western for expression of GFP. GFP signal was normalized to either actin or tubulin. Luciferase activity (normalized to renilla expression) was further normalized to eGFP expression. Data represent at least three experimental replicates.

calcineurin (CN) = target: T1, calcineurin (CN) (Homo sapiens, UniProt Q08209); test: MRBLE-pep calcineurin binding assay (concentration-dependent)
T1 construct: human calcineurin A isoforms (truncated at residue 400); made in house; host or cells: E. coli BL21 (DE3)
Description: MRBLEs were prepared by transferring a 20 μL aliquot from a 600 μL suspension (∼3000–8000 beads depending on pellet size) to a 100 μL PCR strip (20 μL for each CN concentration), exchanging buffer via 3 cycles of iterative pelleting, decanting, and resuspension with 0.1% PBST containing 5% BSA, pH = 7.5 (100 μL), and then left mixing at ∼5 °C on a rotator in the same wash buffer overnight (∼14 hr). MRBLEs were then buffer exchanged once again with CN binding buffer (50 mM Tris pH = 7.5, 150 mM NaCl, 0.1% TWEEN 20) via three iterative cycles of pelleting, decanting, and resuspension.
After incubation, MRBLEs were pelleted, decanted, and washed once with 0.1% PBST (100 μL). After a final round of pelleting and decanting, 20 μL of 0.1% PBST was added and the beads were transferred to a quartz microscope slide for imaging.
The affinity ( Kd ) for each peptide in a MBRLE library was determined via a two-step nonlinear regression using a single-site binding model:(1) Ii=(Imax[CNtotal])/(Kd,i+[CNtotal]) where Ii is the median measured fluorescence intensity for each peptide, Kd,i is the dissociation constant for that interaction, [ CNtotal ] is total CN concentration, and Imax is a global variable representing the fluorescence intensity once MRBLE-pep beads are saturated. First, we determined the global saturation value ( Imax ), by globally fitting the top 80% highest-intensity MRBLE codes. Next, we globally fit the entire data set using this Imax value to yield an estimated absolute affinity ( Kd ) for all peptides in the library. […] Differences in binding affinity were calculated relative to a reference peptide using the standard equation:(2) ΔΔG=RTln(Kd,i/Kd,ref)
Next, we used this reference value and calculated differences in binding affinity ( ΔΔG ) to estimate absolute Kd values for each peptide within the calibration and full calibration libraries (Figure 2—source data 1, Figure 2—source data 2, Figure 5—source data 1, Figure 5—source data 2, Figure 5—source data 3, Figure 5—source data 4).

[2] = all other peptides in vivo experiment, replicate 1
[3] = all other peptides in vivo experiment, replicate 2
[4] = all other peptides in vivo experiment, replicate 3
[5] = PKIVIT in vivo experiment, replicate 1
[6] = PKIVIT in vivo experiment, replicate 2
[7] = PKIVIT in vivo experiment, replicate 3
[8] = PKIVIT in vivo experiment, replicate 4

DPRIEIT [NFATc2-eGFP variant]
NFAT-driven luciferase activity, normalized, relative to empty vector (Data) [1, 2]: 0.5253
NFAT-driven luciferase activity, normalized, relative to empty vector (Data) [1, 3]: 0.5299
NFAT-driven luciferase activity, normalized, relative to empty vector (Data) [1, 4]: 0.6622

PKIVITgpD [PKIVIT-eGFP variant, H9D]
NFAT-driven luciferase activity, normalized, relative to empty vector (Data) [1, 5]: 0.03298
NFAT-driven luciferase activity, normalized, relative to empty vector (Data) [1, 6]: 0.04736
NFAT-driven luciferase activity, normalized, relative to empty vector (Data) [1, 7]: 0.03611
NFAT-driven luciferase activity, normalized, relative to empty vector (Data) [1, 8]: 0.02196

CC[C@H](C)[C@H](NC(=O)CNC(=O)[C@H](C)N)C(=O)N[C@H](C(=O)N1CCC[C@H]1C(=O)N[C@H](C(=O)N[C@@H](Cc1c[nH]cn1)C(=O)N[C@H](C(=O)N[C@H](C(=O)N[C@@H](Cc1c[nH]cn1)C(=O)N[C@@H](C)C(=O)N1CCC[C@H]1C(=O)NCC(=O)N[C@@H](CCC(=O)O)C(=O)N[C@@H](CCC(=O)O)C(N)=O)[C@@H](C)O)C(C)C)[C@@H](C)CC)C(C)C [SCRAMBLED]
ddG_PKIVIT (calcineurin (CN)): 1.239 and 2.254 and 1.287 and 2.444
CN binding in words (calcineurin (CN); 'Triplicate low' dataset): no binding
MED (calcineurin (CN); median bead signal at Conc 63 (Conc_uM 0.063), N 27, file calibration_redo.csv): 209.5
MED (calcineurin (CN); median bead signal at Conc 125 (Conc_uM 0.125), N 13, file calibration_redo.csv): 279.5
MED (calcineurin (CN); median bead signal at Conc 250 (Conc_uM 0.25), N 15, file calibration_redo.csv): 362.5
MED (calcineurin (CN); median bead signal at Conc 500 (Conc_uM 0.5), N 23, file calibration_redo.csv): 494.5
MED (calcineurin (CN); median bead signal at Conc 1000 (Conc_uM 1), N 28, file calibration_redo.csv): 538
MED (calcineurin (CN); median bead signal, Conc 32 (Conc_uM 0.032), file full_calibration2.csv, N = 85 beads): 116
MED (calcineurin (CN); median bead signal, Conc 32 (Conc_uM 0.032), file full_calibration.csv, N = 23 beads): 135
MED (calcineurin (CN); median bead signal, Conc 63 (Conc_uM 0.063), file calibration2.csv, N = 78 beads): 148.25
MED (calcineurin (CN); median bead signal, Conc 63 (Conc_uM 0.063), file full_calibration.csv, N = 13 beads): 175
MED (calcineurin (CN); median bead signal, Conc 125 (Conc_uM 0.125), file calibration2.csv, N = 112 beads): 147.75
MED (calcineurin (CN); median bead signal, Conc 125 (Conc_uM 0.125), file full_calibration2.csv, N = 94 beads): 95
MED (calcineurin (CN); median bead signal, Conc 250 (Conc_uM 0.25), file calibration2.csv, N = 75 beads): 137
MED (calcineurin (CN); median bead signal, Conc 250 (Conc_uM 0.25), file full_calibration2.csv, N = 79 beads): 87.5
MED (calcineurin (CN); median bead signal, Conc 250 (Conc_uM 0.25), file full_calibration.csv, N = 32 beads): 221.75
MED (calcineurin (CN); median bead signal, Conc 500 (Conc_uM 0.5), file calibration2.csv, N = 93 beads): 148
MED (calcineurin (CN); median bead signal, Conc 500 (Conc_uM 0.5), file full_calibration.csv, N = 21 beads): 322
MED (calcineurin (CN); median bead signal, Conc 1000 (Conc_uM 1), file calibration2.csv, N = 104 beads): 137.75
MED (calcineurin (CN); median bead signal, Conc 1000 (Conc_uM 1), file full_calibration2.csv, N = 90 beads): 50.25
MED (calcineurin (CN); median bead signal, Conc 1000 (Conc_uM 1), file full_calibration.csv, N = 30 beads): 343
MED (calcineurin (CN); median bead signal, Conc 2000 (Conc_uM 2), file full_calibration2.csv, N = 57 beads): 10

PKIIIT [PKIIIT site of A238L as eGFP fusion]
NFAT-driven luciferase activity, normalized, relative to empty vector (Data) [1, 5]: 0.0342
NFAT-driven luciferase activity, normalized, relative to empty vector (Data) [1, 6]: 0.04743
NFAT-driven luciferase activity, normalized, relative to empty vector (Data) [1, 7]: 0.08183
NFAT-driven luciferase activity, normalized, relative to empty vector (Data) [1, 8]: 0.07617

CC[C@H](C)[C@H](NC(=O)[C@@H](NC(=O)[C@@H]1CCCN1C(=O)[C@@H](N)Cc1c[nH]cn1)C(C)C)C(=O)N[C@@H](C)C(=O)N[C@H](C(=O)N[C@H](C(=O)NCC(=O)N1CCC[C@H]1C(=O)N[C@@H](Cc1c[nH]cn1)C(N)=O)[C@@H](C)O)C(C)C
Kd (calcineurin (CN); kd, 'Triplicate high' library): 237 ± 70.6 µM

PVIVITgpD [PVIVIT-eGFP variant, H9D]
NFAT-driven luciferase activity, normalized, relative to empty vector (Data) [1, 2]: 0.05157
NFAT-driven luciferase activity, normalized, relative to empty vector (Data) [1, 3]: 0.05511
NFAT-driven luciferase activity, normalized, relative to empty vector (Data) [1, 4]: 0.05137

PRIHIT [NFATc2-eGFP variant]
NFAT-driven luciferase activity, normalized, relative to empty vector (Data) [1, 2]: 0.9608
NFAT-driven luciferase activity, normalized, relative to empty vector (Data) [1, 3]: 0.763
NFAT-driven luciferase activity, normalized, relative to empty vector (Data) [1, 4]: 0.8824

PKIVIT [PKIVIT PxIxIT peptide fused to eGFP, expressed in HEK293T cells]
NFAT-driven luciferase activity, normalized, relative to empty vector (Data) [1, 5]: 0.06969
NFAT-driven luciferase activity, normalized, relative to empty vector (Data) [1, 6]: 0.05279
NFAT-driven luciferase activity, normalized, relative to empty vector (Data) [1, 7]: 0.05005
NFAT-driven luciferase activity, normalized, relative to empty vector (Data) [1, 8]: 0.05009
NFAT-driven luciferase activity, normalized to renilla and eGFP expression, relative to empty vector (Data) ([1]; initial in vivo experiment, replicate 1, FK506 1 μM): 0.05964
NFAT-driven luciferase activity, normalized, relative to empty vector (Data) ([1]; initial in vivo experiment, replicate 2, FK506 1 μM): 0.08838
NFAT-driven luciferase activity, normalized, relative to empty vector (Data) ([1]; initial in vivo experiment, replicate 3, FK506 1 μM): 0.06784
